Test results as given in patent US20240229000A1, “METHODS AND COMPOSITIONS THEREOF FOR SITE-[…] LABELING OF HUMAN IgG BY PROXIMITY-BASED SORTASE-MEDIATED LIGATION” (THE TRUSTEES OF THE UNIVERSITY OF PENNSYLVANIA, priority 2021, published 2024).

Tests used:
[1] = target: Human CD64/Fc-gamma Receptor 1 (FcγRI) (Homo sapiens, UniProt P12314); assay: Fc-gamma receptor I binding assay; conditions: coated plate, biotinylated FcγRI at physiological pH, absorbance 450 nm
Procedure: (§1) FIGS. 8A-8D show functional binding properties of the SrtA-generated ADC. […] Labeled cells were imaged at 40× using bright field illumination and fluorescence. […] Cell labeling was measured at 544/585 nm. […] After adding the streptavidin-HRP and TMB substrate, FcRn binding was measured by absorbance at 450 nm. […] The same protocol for FcγRI binding was conducted, but instead, biotinylated FcγRI was applied to the coated plate at neutral pH.
Fc-gamma Receptor/Binding Assay. A transparent 96-well half-area plate (Corning) was coated using the same protocol described for the FcRn binding assay. The next day, the plate was washed four times with Wash Buffer 1 (1×TBS, 0.05% Tween 20, pH 7.4) and then blocked with Blocking Buffer (2% BSA in Wash Buffer 1, pH 7.4) at 4° C. for 1.5 hours. Wash steps were repeated. Biotinylated Human CD64/Fc-gamma Receptor 1 (FcγRI) diluted in Dilution Buffer (0.5% BSA in Wash Buffer 1) was added to Cetuximab-Ahx-vcMMAE- and Cetuximab-coated wells in duplicate at a starting concentration of 100 ng/mL, which was serially diluted two-fold to 0.78 ng/mL. Duplicate negative control wells with Dilution Buffer only were also included for each condition. […] After 10 min, the TMB reaction was stopped using 2 M sulfuric acid, and the plate was measured for absorbance at 450 nm using a Tecan M200 Infinite plate reader. Data were analyzed using GraphPad Prism.

MDA-MB 468 cells = assay: Cytolysis assay, xCELLigence Real-Time Cell Analysis (RTCA); format: cell-based; conditions: 96 hours
Procedure: FIGS. 9A-9B show in vitro cytolytic activity of the SrtA-generated ADC. […] The xCELLigence Real-Time Cell Analysis (RTCA) system was used to monitor cytolysis for each cell line. […] After 96 hours, cell viability was measured.
Cytolysis Assay. Cytolysis assays were performed using the xCELLigence Real-Time Cell Analyzer (RTCA) system (ACEA Biosciences), which measures the electrical impedance, or cell index, from adherent cells to quantify cell proliferation. Both MDA-MB 468 and A431 cell lines, which overexpress epidermal growth factor receptor (EGFR), were assayed. All cell lines were cultured in DMEM supplemented with 10% FBS and 5% penicillin-streptomycin. First, a 96-well Electronic Microtiter Plate (ACEA Biosciences) was scanned with media only to get a background reading using the xCELLigence RTCA instrument. Cells were then seeded at a density of 5000 cells per well and left at room temperature for 30 min to allow the cells to settle before placing the plate back into the instrument. […] This value was determined by calculating the amount of cell killing (difference between the cell indexes of treated and untreated cells) and then dividing by the cell index of untreated cells (no cytolysis). The data was analyzed using GraphPad Prism to calculate the EC50, or the drug concentration that yields a half-maximal cytolytic response.

EGFR+ MDA-MB 468 cells [2] = assay: Fixed cell-surface ligand binding assay; conditions: PE-goat anti-human secondary antibody, 544/585 nm
Procedure: as §1
Fixed Cell-Surface Ligand Binding Assay. MDA-MB 468 cells were seeded in black, transparent-bottom plates (Corning) at a density of 10,000 cells per well. Once 70-80% confluency was reached, cells were fixed with neutral buffered formalin solution (Sigma-Aldrich) for 15 min and then washed three times with PBST (1×PBS, 0.05% Tween 20). Cells were blocked with 10% Normal Goat Serum (Life Technologies) for 15 min and washed three times again with PBST. […] Triplicate negative control wells with only Blocking Buffer were also included. The same triplicate dilutions for Cetuximab alone were also added to adjacent wells in parallel. After binding for 1 hour covered while shaking, wash steps were repeated. […] Fluorescent signal was measured at 544/585 nm on a Tecan M200 Infinite plate reader. […] Normalized data was analyzed using GraphPad Prism to calculate the binding affinity constants (KD).

EGFR+ MDA-MB 468 cells [3] = assay: Fluorescence microscopy of labeled fixed cells; format: cell-based; conditions: 60 nM, 1 hour, fixed MDA-MB 468 cells
Procedure: as §1
Fluorescence Microscopy. MDA-MB 468 cells were passaged in Dulbecco's Modified Eagle Medium (DMEM) supplemented by 10% fetal bovine serum (FBS) and 5% penicillin-streptomycin. A total of 125,000 cells were seeded per well on a 48-well tissue culture plate (Falcon). After 24 hours, cells were fixed for 15 min using neutral buffered formalin solution (Sigma-Aldrich) and then washed three times with PBST (1×PBS, 0.05% Tween 20). Fixed cells were then resuspended in PBST and blocked with 10% Normal Goat Serum (Life Technologies) for 15 min. After blocking, wash steps were repeated. […] After, cells were washed again to remove excess Cetuximab-Ahx-vcTAMRA or Cetuximab and then resuspended in PBST. Imaging was performed on an Olympus IX81 and then analyzed on ImageJ.

Row | Substance | FcγRI binding [1] | cytolytic activity (killing of cells) (MDA-MB 468 cells) | binding affinities (KD) to MDA-MB 468 cells (EGFR+ MDA-MB 468 cells [2]) | staining of fixed cells under fluorescence (EGFR+ MDA-MB 468 cells [3])
1 | Cetuximab: human IgG1 antibody that targets the epidermal growth factor receptor (EGFR) [reference compound] | comparable | little to no killing | very similar | –
2 | Cetuximab-Ahx-vcTAMRA: Cetuximab conjugated with TAMRAvc-Ahx-LPETG via 1M SrtA-pZ isopeptide ligation | – | – | – | positive staining on the cell surface
3 | Cetuximab-Ahx-vcMMAE: Cetuximab conjugated with MMAEvc-Ahx-LPETG via 1M SrtA-pZ isopeptide ligation; site-specific ADC | comparable | – | very similar | –
